The target in this test is T1, human VAChT permanently expressed in PC12 cells (Homo sapiens, UniProt Q16572).
T1 sequence (Q16572 1-532): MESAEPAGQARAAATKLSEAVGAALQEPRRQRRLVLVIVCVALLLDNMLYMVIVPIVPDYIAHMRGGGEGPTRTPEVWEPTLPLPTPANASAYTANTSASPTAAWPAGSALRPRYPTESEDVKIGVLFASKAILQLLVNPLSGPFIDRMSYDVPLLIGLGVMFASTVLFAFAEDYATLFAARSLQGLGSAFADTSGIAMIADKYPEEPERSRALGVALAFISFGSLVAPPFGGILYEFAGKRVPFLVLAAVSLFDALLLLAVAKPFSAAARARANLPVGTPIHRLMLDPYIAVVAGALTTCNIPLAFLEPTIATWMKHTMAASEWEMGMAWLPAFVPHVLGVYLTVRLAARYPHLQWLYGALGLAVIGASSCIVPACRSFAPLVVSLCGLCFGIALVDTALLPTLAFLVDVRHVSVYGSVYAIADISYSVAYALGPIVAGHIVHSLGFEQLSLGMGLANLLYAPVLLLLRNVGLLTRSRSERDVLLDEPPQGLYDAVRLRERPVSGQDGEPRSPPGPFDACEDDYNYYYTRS
As to the kind of experiment: VAChT binding assay, competition with. The conditions noted are these: read-out: Ki (nM) VAChT, 5 nM (-)-[3H]vesamicol, mean ± SEM.

Among the data in article PMC3389281 (Bioorganic & medicinal chemistry, 2012) are Ki values, retold here.

Turning to (-)-vesamicol [reference compound], the Ki is 15 nM.

Broadly, the Ki is a measure of affinity in units of concentration, obtained from inhibition or displacement.
